The results in this text go back to PubChem BioAssay AID2751 (The Scripps Research Institute Molecular Screening Center, 2010).

Protein sequences, listed by entry. Tags and fused reporters are not part of them.
UniProt Q4J6C6, whole entry: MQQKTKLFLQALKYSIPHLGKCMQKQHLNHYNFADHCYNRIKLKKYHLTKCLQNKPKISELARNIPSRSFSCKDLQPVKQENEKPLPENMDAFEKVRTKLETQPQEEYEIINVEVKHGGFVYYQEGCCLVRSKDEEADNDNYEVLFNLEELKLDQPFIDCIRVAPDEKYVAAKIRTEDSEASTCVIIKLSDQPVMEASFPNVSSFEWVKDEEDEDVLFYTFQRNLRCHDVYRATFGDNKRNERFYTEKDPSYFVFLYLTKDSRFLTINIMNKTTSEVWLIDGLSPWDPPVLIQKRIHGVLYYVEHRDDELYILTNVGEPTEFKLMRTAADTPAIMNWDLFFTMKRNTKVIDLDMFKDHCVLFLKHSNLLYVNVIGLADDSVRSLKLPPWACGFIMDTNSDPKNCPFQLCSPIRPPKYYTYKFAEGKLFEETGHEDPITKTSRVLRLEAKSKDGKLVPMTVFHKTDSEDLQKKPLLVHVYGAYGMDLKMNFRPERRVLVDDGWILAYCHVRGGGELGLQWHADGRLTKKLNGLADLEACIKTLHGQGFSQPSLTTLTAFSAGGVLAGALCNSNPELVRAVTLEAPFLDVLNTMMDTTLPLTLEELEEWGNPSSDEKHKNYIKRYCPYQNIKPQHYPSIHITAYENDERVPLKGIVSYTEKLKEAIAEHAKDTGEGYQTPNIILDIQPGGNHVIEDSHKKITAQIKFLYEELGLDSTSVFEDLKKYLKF

The structures appear in SMILES notation. Only a part is listed here, and it is no random draw. Active and inactive are the calls of the source. Rule as the data show it: active = inhibition above about 43%; inactive = the rest.

For the assay, the target named is Prolyl endopeptidase-like (Homo sapiens) (UniProt Q4J6C6). Briefly: PREPL enzyme inhibitors, primary screen, biochemical, fluorescence polarization (AID 2751).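 Also: 0% = enzyme with DMSO and 100% = wells lacking enzyme.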 Conditions: recombinant PREPL, fluorescence polarization activity-based probe; at 5.96 µM; active compounds read high. (In general: Polarisation of emitted light reports the rotation of a fluorescent probe.)
As to `O=C(NCC1(N2CCCCC2)CCCCC1)c1ccc(OC(F)F)cc1`, the inhibition was inactive: 13.8%.

Regarding `O=C(NCC1(N2CCCCC2)CCCCC1)c1cccc([N+](=O)[O-])c1`, the inhibition was inactive: 12.9%.

On to `N#CC1(Nc2ccccc2)CCN(CCc2ccccc2)CC1`, for which the inhibition was inactive: 8.87%.

In the case of `CCN1CCC(Nc2ccc(Cl)cc2)CC1`, the inhibition was inactive: -0.27%.

With `O=C(NCC1(N2CCCCC2)CCCCC1)c1cccc(C(F)(F)F)c1`, the inhibition was inactive: -3.54%.

Take `COc1ccc(NC2CCN(C(=O)OC(C)(C)C)CC2)cc1`: the inhibition is inactive: 10.4%.

Regarding `CN1CCN(CCOC(=O)C(O)(c2ccccc2)c2ccccc2)CC1`, the inhibition is inactive: -1.04%.

For `O=C(NCC1(N2CCOCC2)CCCCC1)c1cc(=O)[nH]c2ccccc12`, the inhibition was inactive: -10.9%.

For the molecule `COc1cc(C(=O)NCC2(N3CCCCC3)CCCCC2)ccc1OC(F)F`, the inhibition was inactive: -2.2%.

On to `CN(C)c1cccc(C(=O)NCC2(N3CCCCC3)CCCCC2)c1`, for which the inhibition was inactive: 14.2%.

`COc1ccc(CN(CCCl)CCCl)cc1Cl`: the inhibition is inactive: -6.84%.

On to `CC(C)c1ccc(NC2CCN(C(=O)OC(C)(C)C)CC2)cc1`, for which the inhibition is inactive: 3.79%.

As for `O=C(NCC1(N2CCOCC2)CCCCC1)c1cc(F)c(F)cc1Cl`, the inhibition is inactive: 8.96%.

`COc1cc(OC)c(C(=O)NCC2(N(C)C)CCCCC2)cc1OC`: the inhibition was inactive: 17.6%.

In the case of `CN1CCC(Nc2cccc(F)c2)CC1`, the inhibition was inactive: -3.24%.

As to `O=C(NCC1(N2CCCCC2)CCCCC1)c1cncc(Br)c1`, the inhibition is inactive: 15.2%.

Turning to `O=C(NCC1(N2CCCCC2)CCCCC1)c1cccs1`, the inhibition is inactive: 15.2%.

With `O=C(NCC1(N2CCCCC2)CCCCC1)c1ccc(=O)[nH]c1`, the inhibition is inactive: 14%.

For `CC(C)(C)OC(=O)N1CCC(N(C(=O)c2ccccc2)c2ccc(F)cc2)CC1`, the inhibition is inactive: -4.79%.

For `COc1ccc(C(=O)NCC2(N3CCCCC3)CCCCC2)c(OC)c1OC`, the inhibition was inactive: 10.6%.

For the molecule `COc1ccc(C(=O)NCC2(N3CCCCC3)CCCCC2)cc1`, the inhibition is inactive: 15.9%.

With `CSc1ccccc1C(=O)NCC1(N2CCCCC2)CCCCC1`, the inhibition was inactive: 10.8%.

For the molecule `O=C(NCC1(N2CCOCC2)CCCCC1)c1cc2ccccc2o1`, the inhibition was inactive: 27.3%.

With `Cc1cc(C)cc(N(C(=O)c2ccccc2)C2CCN(C(=O)OC(C)(C)C)CC2)c1`, the inhibition is inactive: 13.4%.

As for `O=C(NCC1(N2CCCCC2)CCCCC1)c1ccc(Cl)nc1`, the inhibition is inactive: 6.48%.

With `CCOC(=O)N1CCC(Nc2ccc(OC)cc2)CC1`, the inhibition was inactive: 5.06%.

As to `COc1ccc(Cl)cc1C(=O)NCC1(N2CCOCC2)CCCCC1`, the inhibition was inactive: 1.45%.

Regarding `N#CC1(Nc2ccccc2)CCN(Cc2ccccc2)CC1`, the inhibition is inactive: 9.66%.

For `O=C(NCC1(N2CCCCC2)CCCCC1)c1ccc(Cl)s1`, the inhibition is inactive: 14.8%.

On to `O=C(OC1CN2CCC1CC2)C1c2ccccc2Oc2ccccc21` (stereo not drawn), for which the inhibition was inactive: 20.1%.

For `CCOc1ccc(C)cc1CN(CCCl)CCCl`, the inhibition is inactive: 4.74%.

As for `COc1ccc(NC2CCN(CCc3ccccc3)CC2)c(OC)c1`, the inhibition was inactive: 13.5%.

As to `O=C(NCC1(N2CCCCC2)CCCCC1)c1ccc(F)cc1`, the inhibition was inactive: -3%.

For the molecule `Cc1ccc(OCC(C)C)c(CN(CCCl)CCCl)c1`, the inhibition was inactive: 4.62%.

On to `CCOC(=O)N1CCC(Nc2cccc(C)c2)CC1`, for which the inhibition was inactive: -1.96%.

On to `COc1cc(OC)cc(C(=O)NCC2(N3CCCCC3)CCCCC2)c1`, for which the inhibition was inactive: 14.7%.

Consider `Fc1ccccc1NC1CCN(Cc2ccccc2)CC1`, for which the inhibition is inactive: -55.6%.

Turning to `Cc1ccc(C(=O)NCC2(N3CCCCC3)CCCCC2)o1`, the inhibition was inactive: -2.11%.

As to `CCN1CCC(Nc2cccc(F)c2)CC1`, the inhibition is inactive: 2.29%.

As for `CN(C)c1ccc(C(=O)NCC2(N3CCCCC3)CCCCC2)cc1`, the inhibition was inactive: 39.9%.

Take `O=C(NCC1(N2CCCCC2)CCCCC1)c1ccco1`: the inhibition was inactive: -13.2%.

Take `CN1CCC(Nc2ccc(F)c(Cl)c2)CC1`: the inhibition was inactive: -7.16%.

On to `CCOc1ncccc1C(=O)NCC1(N2CCOCC2)CCCCC1`, for which the inhibition is inactive: -0.29%.

As for `CCCOc1ccc(C(=O)NCC2(N(C)C)CCCCC2)cc1`, the inhibition was inactive: -8.42%.

On to `O=C(O)C1(Nc2ccccc2)CCN(Cc2ccccc2)CC1`, for which the inhibition is inactive: -22.4%.

For `CC(C)(C)OC(=O)N1CCC(Nc2ccccc2)CC1`, the inhibition was inactive: 2.87%.

`CCC(CO)(C(=O)OC1CN2CCC1CC2)c1ccccc1` (stereo not drawn): the inhibition is inactive: 18.5%.

Regarding `COc1cccc(C(=O)N(c2cc(C)cc(C)c2)C2CCN(C(=O)OC(C)(C)C)CC2)c1`, the inhibition was inactive: 10.1%.

Regarding `COc1cc(OC)cc(C(=O)NCC2(N3CCOCC3)CCCCC2)c1`, the inhibition is inactive: -2.56%.

For the molecule `CCCOc1ccc(C)cc1CN(CCCl)CCCl`, the inhibition is inactive: 5.66%.

On to `CN1CCC(Nc2ccc(Cl)cc2)CC1`, for which the inhibition is inactive: -6.35%.

With `O=C(NCC1(N2CCOCC2)CCCCC1)c1cc(Br)ccc1Cl`, the inhibition is inactive: 4.28%.

With `COc1cc(C(=O)NCC2(N3CCOCC3)CCCCC2)cc(OC)c1C`, the inhibition was inactive: 6.88%.

For the molecule `COc1ccc(C(=O)NCC2(N3CCOCC3)CCCCC2)cc1OC`, the inhibition is inactive: 0.14%.

Regarding `N/C(=N\O)c1c(N)no[n+]1[O-]`, the inhibition was inactive: 2.46%.

Turning to `CCOC(=O)N1CCC(Nc2ccc(C)cc2)CC1`, the inhibition was inactive: 5.34%.

As for `CCc1cc(C(=O)NCC2(N3CCCCC3)CCCCC2)sc1C`, the inhibition was inactive: 4.63%.

Take `O=C(OC1CN2CCC1CC2)C1c2ccccc2C=Cc2ccccc21` (stereo not drawn): the inhibition is inactive: 13.4%.

For the molecule `CC(C)(C)OC(=O)N1CCC(N(C(=O)c2ccccc2)c2ccc(Cl)cc2)CC1`, the inhibition was inactive: 2.93%.

Consider `N#Cc1ccc(C(=O)NCC2(N3CCCCC3)CCCCC2)cc1`, for which the inhibition is inactive: -2.86%.

Regarding `CCCN1CCC(Nc2cc(OC)cc(OC)c2)CC1`, the inhibition is inactive: 11.2%.

For `c1ccc(CN2CCC(Nc3ccccc3)CC2)cc1`, the inhibition is inactive: -3.78%.

As for `CN(C)C1(CNC(=O)c2cccc(C#N)c2)CCCCC1`, the inhibition is inactive: -1.84%.

As usually defined, the inhibition is the change of the read-out against control, counted positive when it falls.
